# Apparent affinities of Ab-95 variants for a coronavirus HR2 peptide

All variants were tested on one target, the spike HR2 peptide PDVDLGDISGINAS (SARS-CoV-2).

Each scFv is VH, three GGGGS repeats, VL, as in the parent Ab-95, and differs from it in the CDRs of the light chain only.
VH: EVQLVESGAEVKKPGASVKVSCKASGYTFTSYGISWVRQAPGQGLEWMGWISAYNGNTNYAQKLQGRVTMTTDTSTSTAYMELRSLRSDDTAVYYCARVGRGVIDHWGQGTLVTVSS
VL: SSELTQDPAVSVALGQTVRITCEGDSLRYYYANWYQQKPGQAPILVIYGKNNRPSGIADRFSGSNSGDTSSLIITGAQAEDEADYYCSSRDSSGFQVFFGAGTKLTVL

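Library AAYL52 holds single substitutions and randomly drawn double and triple substitutions in the CDRs. The assay is AlphaSeq: two haploid yeast populations carry antibody and antigen on their surface. After mating in shaken culture at 30 °C for 16 h, diploids were selected and their barcode pairs sequenced. Scores were corrected for input abundance and mapped to Kd with protein pairs of known affinity run in the same pool. Mating was done three times.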

The parent's light chain CDRs are EGDSLRYYYAN, GKNNRPS, SSRDSSGFQVF; each variant's own CDRs replace them letter for letter. Every variant below is changed at K50 of the VL (sequential numbering). Kd is apparent (estimated from mating counts) and averaged on the log scale over replicates with a signal. Smaller is tighter. "not detected" marks a missing value. The strain was present, yet no cells mated with the target were sequenced in any replicate, which points to weak or no binding. As a blank, each scFv also met three strains without target: over library AAYL52, 28% of these pairings were detected, typically at 8.2 µM and seldom below 800 nM. In this assay the parent's reference entry averaged 200 nM; its copy inside this library read 180 nM.

CDR-L1,CDR-L2,CDR-L3,apparent Kd,replicates with signal
EGDSLRYYYAN,GMNNRPS,SSRDSYGFQVF,960 nM,3/3
EGDSLRYYYAN,GYNNRPS,SSRDSSGFQVF,810 nM,3/3
EGDSLRYYYAN,GANNRPG,SSRDSEGFQVF,220 nM,3/3
EGDSLRYYYAN,GSNNMPS,SSRDSSGFQMF,39 µM,2/3
EGDSLRYYYAM,GFNNRPS,SSRDSSGNQVF,44 µM,3/3
EGDSLRYYWAN,GWNNRPS,SSRTSSGFQVF,6.8 µM,1/3
EGDRLRYYYAN,GYNNRPS,SSRDSGGFQVF,72 µM,3/3
EGDSLRYYDAN,EYNNRPS,SSRDSSGFQVF,750 nM,3/3
EGDSLRYYYAN,GYNNRPS,SSRHSSGFQVF,1.8 µM,3/3
EMDSLRYYYAN,GANNRPS,SSRDSSGFQEF,not detected,0/3
EGDSLRYYYAN,GINKRPS,SSRDSSTFQVF,not detected,0/3
EGDSLRYYYAN,GSHNRPS,SSRDSSGFQVF,800 nM,3/3
EFDSLRYYYRN,GENNRPS,SSRDSSGFQVF,540 nM,1/3
YGDSLRYYYVN,GCNNRPS,SSRDSSGFQVF,8.1 µM,1/3
EGDSLRYYYAN,EMNNRPS,SSIDSSGFQVF,not detected,0/3
EGVSLRYYYAN,GTNNRPS,SSRDSHGFQVF,1.2 µM,2/3
EGDSLRYYYAN,GMNWRPS,SSRDSLGFQVF,2.5 µM,1/3
EGDSLRYYYAN,GDNNRPS,SSRDSSGFQVF,30 nM,3/3
EGGSARYYYAN,GPNNRPS,SSRDSSGFQVF,820 nM,3/3
EGDSLRYYYAN,GINNGPS,SSRDSSGFVVF,39 µM,3/3
EGDSLRYYYAN,GNNNRGS,SSRASSGFQVF,410 nM,3/3
EGDSLRYYYAN,GRNNRPS,SSRNSSGFQVF,580 nM,3/3
EGDSLRYFYAN,GANNRPS,SSRDSSGFEVF,4.8 µM,3/3
EGDSMRYYYAN,TANNRPS,SSRDSSGFQVF,2.0 µM,1/3
EGDSLRYYYAN,GFNNRPS,SSRDSSIFPVF,not detected,0/3
ELDSLRYYYAN,GPNNRPS,SQRDSSGFQVF,4.7 µM,1/3
SGSSLRYYYAN,GCNNRPS,SSRDSSGFQVF,1.2 µM,1/3
EPDSLRYYYAN,GTNNRPS,RSRDSSGFQVF,72 µM,1/3
EGDSLRYYYAN,GPNNRPS,SSRCSSGVQVF,6.6 µM,2/3
EGDSLRYYYAN,GLNNRPS,SSRDSKGFQDF,300 nM,1/3
ENDSLRYYYAN,GTNNRPS,SSHDSSGFQVF,not detected,0/3
EGDSLRYYYAN,GPNNRPS,LSRDFSGFQVF,810 nM,3/3
EGDSLRYYYAN,GSNNRPS,SSRDGSGFQVF,22 µM,3/3
EGDSLVYYYAN,GDNNRPS,SSRDSSGFEVF,8.8 µM,2/3
EGDSERYYYAN,GDNNRPS,SSRVSSGFQVF,6.5 µM,3/3
EGDSLRYYYAW,GQNNRPS,SSRQSSGFQVF,25 µM,1/3
EGDSLDYYYAN,GANNRPS,SSRDSSNFQVF,670 nM,3/3
EGDSLRYYYAN,GVNNRPS,SSRGSRGFQVF,3.1 µM,3/3
EGDSLRYYYAN,GANNRPS,SCRESSGFQVF,320 nM,3/3
EGWSLRYYYAN,GSNNRPS,SSWDSSGFQVF,810 nM,3/3
EGDSLRYYYAN,GHNNRYS,SSRDSSGFQVF,680 nM,3/3
EGDSLRYYYAN,GPNNRPS,SSRDISGFQCF,2.0 µM,3/3
EGDSLRYYYAN,GMNNRPS,SSRDSSGFYVA,770 nM,3/3
EDDSLRYAYAN,GPNNRPS,SSRDSSGFQVF,960 nM,3/3
EGDSLRYYYAN,GPNNRPS,SSRDDSGFQVM,8.5 µM,3/3
EGDSPRYYYAN,GMNNRPS,SSRPSSGFQVF,16 µM,3/3

Source: Engelhart et al. 2022 (doi:10.1038/s41597-022-01779-4), MIT Lincoln Laboratory and A-Alpha Bio; data file from the FLAb repository.